The list shows a part of the results, in another mix than the full data. Activity calls are given as the source filed them. The call rests on the fitted dose curve; in most records, active means well fitted cell-killing curve with a large enough effect; inactive means no such curve, though single readings can be large or run the other way.
Potency means the concentration at half of the fitted maximal effect.

The nature of this test: qHTS for Inhibitors of TGF-b: Cytotox Counterscreen. Conditions: HepG2 CAGA-GFP viability, ATP luminescence, 18 h; series mostly up to 46.1 µM; activity change, negative = cytotoxicity: at the top concentration. An excerpt:
TGF-b is a main component in the TGF-b signaling pathway which plays diverse roles in cellular and development pathways. TGF-b is mediated by transcription factors called "Smads". Although the Smad-dependent pathway is the primary canonical TGF-b signaling mode, TGF-b1 can also activate alternative signaling pathways, including those involving MAPK (ERK, JNK and p38). This interaction may mediate or enhance Smad-dependent responses, or can exert Smad-independent effects. The complexity of this signaling cascade allows the TGF-b superfamily to perform unique, overlapping or redundant functions. We believe that targeting the TGF-beta pathway at the Smad-transcription factor level may eliminate the consequences of disrupting the entire pathway and offer specificity without affecting other signaling pathways. Smad3 is the primary transducer of TGF-b's signals and Smad3 regulates many functions attributed to TGF-b signaling. We hypothesize that Smad3 inhibitors will selectively eliminate Smad3-specific TGF-beta signals without undesired off-target effects. We aim to identify Smad3-small molecule antagonists using a quantitative high throughput screening (qHTS) approach.
A high-throughput assay was developed to screen the NIH Molecular Libraries Small Molecule Repository (MLSMR). This is a cell based assay, where TGF-b is tagged with GFP. This is a counterscreen that evaluates the cytotoxicity of the compounds that were screened in the primary cell-based screen (AID 588855).
MH087449NIH Chemical Genomics Center [NCGC]
NIH Molecular Libraries Probe Centers Network [MLPCN]
Assay Submitter (PI): Sushil Rane, National Institute of […]
Suspensions of trypsinized HEPG2 CAGA-GFP cells were dispensed into white, tissue culture-treated, solid 1536-well plates at 5uL/well (1000 cells/well final concentration) in DMEM medium supplemented with 1% FBS. Plates were incubated at 37 degrees C for 2 hours, after which 23 nL of compounds or DMSO were delivered to each well using a pin tool. One uL of recombinant TGF-beta in DMEM (1% FBS) was then dispensed (500 pg/mL final concentration), and plates were incubated at 37 degrees C for 18 hours. Two uL of CellTiter Glo (Promega), a luminescence-based viability reagent, was dispensed, followed by a 10 minute room temperature incubation. The plates were then measured on a PerkinElmer ViewLux plate reader for luminescence (clear filter) using a 5 second exposure. The %Activity was determined from the corrected luminescence values. Wells containing media only (no cells) were used to normalize %Activity of identified toxic compounds; media-only wells corresponded to 100%Activity (complete cell-killing), while DMSO-dosed cell controls were used to normalize 0%Activity (no toxicity).
Concentration-response curves were fitted to the signals arising from the resulting luminescence. The concentration-effect curves were then classified based on curve quality (r2), response magnitude and degree of measured activity, and compounds were subsequently categorized based on their curve class.
Turning to `O=P(Nc1nccs1)(Oc1ccccc1)Oc1ccccc1`, the “activity change, negative = cytotoxicity” value was inactive: 1.92%.
Take `CCOP1(=S)c2c(C)nn(CCC#N)c2N=C(c2ccccc2F)N1C` (centres undefined): the “activity change, negative = cytotoxicity” value was inactive: -2.67%.
Same read-out and setting: with `CS(=O)(=O)c1cc([N+](=O)[O-])c2no[n+]([O-])c2c1` the figure was inactive: -56.6%; with `CCOP1(=S)c2c(C)nn(CCC#N)c2N=C(c2ccc(F)cc2)N1C` (centres undefined), inactive: 17%.
With `CN(C(=O)Cc1ccccc1)[C@@H]1CC[C@]2(CCCO2)C[C@H]1N1CCCC1`, the “activity change, negative = cytotoxicity” value is inactive: -17.5%.
Consider `N#CCCN(C(=O)COC(=O)C(O)(c1ccccc1)c1ccccc1)c1ccc(F)cc1`, for which the “activity change, negative = cytotoxicity” value is inactive: -1.1%.
On to `Cc1ccccc1C(=O)O/N=C(/C(N)=O)P(=O)(OC(C)C)OC(C)C`, for which the “activity change, negative = cytotoxicity” value is inactive: -39.5%.
Still for that read-out and setting: under `CN(C(=O)Cc1ccc(Cl)c(Cl)c1)[C@H]1CC[C@@]2(CCCO2)C[C@@H]1N1CCCC1` stands inactive: 5.1%.
Regarding `CN(C)C(=O)c1cc([N+](=O)[O-])cc2c1-c1c(cc([N+](=O)[O-])cc1[N+](=O)[O-])C2=O`, the Potency is active: 12.6 µM.
Take `O=[N+]([O-])c1ccc2c(c1)nnn2O`: the “activity change, negative = cytotoxicity” value was inactive: -10.6%.
Still for that read-out and setting: under `NC(=O)Nc1ccc([As](=O)(O)O)cc1` stands inactive: -8.39%; under `CN(C)C1(CNC(=O)c2ccc(S(C)(=O)=O)cc2)CCCCC1`, inactive: 47.8%; under `CCCC1OP(=O)(Nc2ccccc2)OCC1CC` (centres undefined), inactive: -30.3%.
The same measure, in the same setting: with `O=C(/C=C/c1ccccc1)OC1CN2CCC1CC2` (centres undefined) the figure was inactive: -2.5%.
On the same count and under the same terms, with `COc1cc([N+](=O)[O-])ccc1[N+](=O)[O-]` the figure was inactive: -33.6%; with `Cc1ccc(C(=O)OC2CN3CCC2CC3)cc1` (centres undefined), inactive: -3.86%.
As for `CC1CCC(C(C)C)C(OP(=O)(Nc2ccccn2)c2ccccc2)C1` (centres undefined), the “activity change, negative = cytotoxicity” value is inactive: -22.3%.
Still for that read-out and setting: under `Cc1nn(-c2ccccc2)c2c1P(=O)(N1CCOCC1)N(C)C(c1ccccc1)=N2` (centres undefined) stands inactive: 1.25%.
The same measure, in the same setting: under `Nc1cccc([As](=O)(O)c2ccccc2)c1` stands inactive: 10.2%; under `NS(=O)(=O)c1cccc(NC(=O)COC(=O)C(O)(c2ccccc2)c2ccccc2)c1`, inactive: 0.968%.
Same read-out and setting: with `O=P1(Nc2ccc(Br)cn2)COc2ccccc2OC1` the figure was inactive: -14.4%; with `Cc1ccc(OCC(=O)OC2CN3CCC2CC3)cc1` (centres undefined), inactive: -1.72%; with `O=[As](O)(c1cccs1)c1cccs1`, inactive: 1.83%.
Take `Cc1ccc(S(=O)(=O)N(CCCN)CCCc2c(C)nc(N)[nH]c2=O)cc1`: the “activity change, negative = cytotoxicity” value is inactive: -27%.
Still for that read-out and setting: with `O=P1(Nc2ncccn2)COc2ccccc2OC1` the figure was inactive: 3.69%.
On the same count and under the same terms, under `CC(C)(C)C(=O)NC(Sc1ncccn1)C(Cl)(Cl)Cl` (centres undefined) stands inactive: -31.3%; under `Clc1n[nH]nc1-c1nn[nH][15n]1`, inactive: -1.95%; under `O=P1(N(CCCl)CCCl)NCCC(C(F)(F)F)O1` (centres undefined), inactive: -13.6%.
On to `CCOP(=O)(NC(=NC(C)c1ccccc1)NC(C)c1ccccc1)OCC` (centres undefined), for which the “activity change, negative = cytotoxicity” value is inactive: -7.77%.
Still for that read-out and setting: with `CCC1=CC2Cc3nc4ccc(Cl)cc4c(N)c3C(C1)C2` (centres undefined) the figure was inactive: -106%.
Still for that read-out and setting: under `O=P1(Nc2ccccn2)COc2ccccc2OC1` stands inactive: -8.53%; under `CN(CCCl)Cc1cc(Cl)c(NC2=NCCN2)c(Cl)c1`, inactive: -10.8%.
The same measure, in the same setting: under `CCOP(=O)(Nc1ccc(C)cn1)OCC` stands inactive: 6.22%.
As to `CN(C(=O)Cc1ccc(Cl)c(Cl)c1)[C@@H]1CCCC[C@H]1N1CCCC1`, the “activity change, negative = cytotoxicity” value was inactive: -20.5%.
On the same count and under the same terms, under `CC(C)/C=N\N=C(\N)N[N+](=O)[O-]` stands inactive: -14.8%.
On the same count and under the same terms, with `CC1(CBr)Cn2c(nc3ccccc3c2=O)S1` (centres undefined) the figure was inactive: 2.63%; with `COc1ccccc1CNC(=O)COC(=O)C(O)(c1ccccc1)c1ccccc1`, inactive: 11.7%.
On the same count and under the same terms, under `c1nnnn1CCn1cnnn1` stands inactive: 2.26%; under `O=P(Nc1nccs1)(c1ccccc1)c1ccccc1`, inactive: 17.9%; under `CC(C)C(=O)NC(Sc1ccccc1)C(Cl)(Cl)Cl` (centres undefined), inactive: 3.21%.
As for `COc1cccc([N+](=O)[O-])c1[N+](=O)[O-]`, the “activity change, negative = cytotoxicity” value was inactive: -91.8%.
Regarding `C[C@H]1OP(=O)(Oc2ccccc2)[C@H](O)[C@H](O)[C@H]1N=[N+]=[N-]` (some centres undefined), the “activity change, negative = cytotoxicity” value is inactive: -15%.
The same measure, in the same setting: with `O=P(Nc1nc2ccccc2s1)(c1ccccc1)c1ccccc1` the figure was inactive: -10.5%.
On the same count and under the same terms, under `CN(C)C1(CNC(=O)c2ccc(Cl)c(S(N)(=O)=O)c2)CCCCC1` stands inactive: -2.36%; under `O=P(Nc1ccccn1)(c1ccc(Br)cc1)c1ccc(Br)cc1`, inactive: -46.4%.
Same read-out and setting: under `Nc1ccc(CCCCOc2ccccc2)cc1` stands inactive: -10.4%; under `COc1ccc(N)c([N+](=O)[O-])c1[N+](=O)[O-]`, inactive: -13.6%; under `O=C(OC1CN2CCC1CC2)c1cccc(Cl)c1` (centres undefined), inactive: 3.11%.
As to `Nc1ccc([As](=O)(O)c2ccc([N+](=O)[O-])cc2)cc1`, the “activity change, negative = cytotoxicity” value was inactive: -31.8%.
On the same count and under the same terms, with `C(Cc1nn[nH]n1)Cc1nn[nH]n1` the figure was inactive: 4.85%; with `O=[As](O)(c1ccccc1)c1ccc(O)cc1`, inactive: 19%.
The same measure, in the same setting: with `CC(=O)NC(SC(=S)N(C)C)C(Cl)(Cl)Cl` (centres undefined) the figure was inactive: -36.3%; with `O=[N+]([O-])c1ncn(CCn2cnc([N+](=O)[O-])n2)n1`, inactive: -0.0348%.
Take `O=[N+]([O-])c1ccc(O)c(/C=N/Nc2ccc([N+](=O)[O-])cc2[N+](=O)[O-])c1`: the “activity change, negative = cytotoxicity” value was inactive: -36.1%.
Turning to `C=C(COC(=O)CCC(=O)O)CC1CC(O)[C@]2(C)OC3CC4OC5C[C@]6(C)O[C@]7(C)CCC8OC9C[C@]%10(C)OC%11C(C)=CC(=O)OC%11CC%10OC9C[C@@H](C)C8OC7CC6O[C@]5(C)C/C=C\C4OC3CC2O1` (some centres undefined), the “activity change, negative = cytotoxicity” value is inactive: -56.9%.
On to `O=P1(N(CCCl)CCCl)OCCC2CCCCN21` (centres undefined), for which the “activity change, negative = cytotoxicity” value is inactive: -3.88%.
The same measure, in the same setting: under `Cc1ccc(NP(=O)(Oc2cccc(C)c2)Oc2cccc(C)c2)nc1` stands inactive: -88.3%; under `O=[N+]([O-])c1cc([N+](=O)[O-])c2nc[nH]c2c1`, inactive: -8.63%.
Still for that read-out and setting: under `c1ccc(-c2nn[nH]n2)c(-c2nn[nH]n2)c1` stands inactive: 28.3%.

(Values after PubChem BioAssay AID588856 (National Center for Advancing Translational Sciences (NCATS), 2011).)
